From patent US7846957B2, “Aromatase inhibition to enhance assisted reproduction” (Ares Trading S.A., priority 2001, dated 2010)

Test system: unexplained infertility patients
Test: Prospective controlled study: letrozole in addition to FSH vs FSH only, intrauterine insemination (Example 1)
Type: in vivo, human
Details: for Pregnancy rate: letrozole 2.5 mg/day day 3 to 7, FSH 50-150 IU/day
Procedure: This was a prospective controlled study that included a study group, the patients of which received letrozole (2.5 mg/day from (day 3 to 7 of the menstrual cycle) in addition to FSH and a control group that received FSH only. The study group included 12 unexplained infertility patients. The control group-consisted of 55 unexplained infertility patients. All patients received recombinant or highly purified FSH (50-150 IU/day starting on day 3 to 7 until day of hCG (10,000 IU) that was given when 2 leading follicles were >2 cm). The FSH regimen was based on the patient's clinical profile. Patients were not randomized. All patients had intrauterine insemination. There was no statistically significant difference between the study and control groups as regards age, weight, infertility duration, number of prior insemination cycles, semen parameters or type of FSH.

FSH only: recombinant or highly purified follicle stimulating hormone, control group treatment
Day of hCG administration (day of menstrual cycle): 12
Follicle (>1.8 cm) on hCG day (number of follicles, on hCG day): 3.2
Endometrial thickness (on hCG day) (on hCG day): 12.1
Estradiol on hCG day (on hCG day): 3140 pmol/L
Estradiol/mature follicle (on hCG day): 969 pmol/L
LH on hCG day (IU/L) (on hCG day): 18.3 IU/L
Total FSH dose/cycle (IU) (unexplained infertility, IUI): 1320 IU
Pregnancy rate (unexplained infertility, IUI): 18%
Pregnancy rate (unexplained infertility, IUI, listed as FSH): 18%
